System: rats
Test: Oxaliplatin - acetone test (reaction time)
Type: in vivo, rat
Conditions: internal reference Gabapentin 100 mg/kg, po
Procedure: Oxaliplatin. Induction: Acute peripheral neuropathy was induced by a single intraperitoneal injection of oxaliplatin (6 mg/kg, i.p) 30 hours before testing. Acetone test: Cold allodynia was measured using the acetone test. In this test, the latency of hind paw withdrawal was measured after application of a drop of acetone (50 μL) to the plantar surface of both hind paws three times for both hind paws alternatively with intervals of approximately 2-3 min.
Testing: 120 minutes after treatment. N=4/model/test. Results are expressed for each group as a percentage of activity calculated from the mean value of the vehicle-treated animals and compared to naïve animals, control paw, or cut-off value, depending on the test.

## NCC1(CC(=O)O)CCCCC1
  % of activity vs. vehicle, oxaliplatin acetone test (reaction time): 82%
